High-throughput results as filed in PubChem BioAssay.
C2C12 statin – suppressors of statin myotoxicity in C2C12 myotubes, primary screen, cell-based, single point, plate reader; C2C12 myotubes + simvastatin, ATP luminescence, 48 h; scaled: DMSO 0, geranylgeraniol control 100; rescue of ATP level, % at 7.49 µM; hit rate 0.78% among 330,000;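 active = mean ATP rescue above about 67%, or every replicate alone reaching that limit, limit read from the data, passing the limit was not always enough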;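 note: myotubes were challenged with 10 µM simvastatin during compound exposure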
Yeast UUG start – modulators of start codon recognition fidelity in yeast. S. cerevisiae UUG-firefly luciferase reporter, luminescence/redox ratio. activity score, % at 18.7 µM. 0.13% of 350,000 active. AID 602363;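 active = replicate mean at a twofold rise or more, about +100% in these data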;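 also: firefly luciferase made from a UUG start codon reports start codon fidelity; reporter light over untreated wells divided by growth signal over untreated wells; some hits fall short of that in this replicate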
PglD inh – C. jejuni PglD acetyltransferase inhibitors, primary screen, biochemical, DTNB colorimetric, single point | purified PglD enzyme, DTNB colorimetric CoA detection | hit rate 0.098% among 360,000 | UDP-N-acetylbacillosamine N-acetyltransferase PglD (Campylobacter jejuni) | inhibition, % at 12.5 µM | AID 602405, 2012; in the data active = inhibition above about 16%, passing the limit was not always enough
PGC1a acetyl inh – inhibitors of PGC1a acetylation signal, primary screen, cell-based, U2OS, AlphaScreen, inhibitor mode; AlphaScreen anti-acetyl-lysine; with virally co-expressed GCN5 acetyltransferase; inhibition, % at 15.6 µM; hit rate 0.17% among 350,000;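 active = every replicate shows inhibition of at least 40%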;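 note: 0% = neutral control wells and 100% = positive control wells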
esBAF inh – Bmi1 luciferase reporter increase in mESCs, primary screen, esBAF inhibitor project, mouse ES cells, Bmi1 luciferase knock-in, single point | 24 h; 100% = twice the neutral-well signal | reporter increase, % at 12.5 µM | hit rate 2% among 350,000; in the data active = activation above about 40%;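 note: 0% = median of the plate's neutral control wells and 100% = double that signal; a rise in the Bmi1 reporter signal indicates esBAF inhibition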
E-sel inducer – E-selectin induction in HUVECs, primary screen, imaging, HUVEC, immunofluorescence imaging, single point; P16581; normalized: neutral wells 0, TNF-alpha wells 100; activation, % at 7.58 µM; hit rate 0.37% among 260,000; AID 686992, 2013;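 active = mean E-selectin-positive cell signal at least 10% of the positive control, reached in at least 60% of replicates, without over 20% cell loss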
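Assay system: HUVEC primary endothelial cells. Input: 3,000 HUVEC seeded per well. Doses: one compound dose added by pin transfer. Read-out basis: % PE-positive cells. Benchmarks: TNF-alpha high, DMSO low. Detection: immunofluorescence imaging. Buffer or medium: EGM-2, gelatin.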
Numbers without * were called inactive. Only some compounds are listed: those with a hit (about 2.8% of all), similar ones and a draw of the others.

Cc1[nH]c(=O)c(C#N)cc1-c1ccncc1 was read as C2C12 statin 0, Yeast UUG start -7, PglD inh -1, PGC1a acetyl inh -3, esBAF inh 3 and E-sel inducer 58*.
CCc1cc2c(=O)[nH]c(-c3ccncc3)nc2s1 was read as E-sel inducer -1.
For CC1CCN(C(c2ccccc2)c2nnnn2C(C)(C)C)CC1 (stereo not drawn) the results were C2C12 statin 106*, Yeast UUG start -13, PglD inh -1, PGC1a acetyl inh -28 and esBAF inh -8.
`C/C(=N\NC(=O)COc1ccc(C(C)(C)C)cc1)c1ccc(-n2ccnc2)cc1` gave C2C12 statin -8, Yeast UUG start -17, PglD inh -7, PGC1a acetyl inh 1 and esBAF inh 48*.
`COc1ccc(OCC(=O)N/N=C(\C)c2ccc(-n3ccnc3)cc2)cc1` gave C2C12 statin 2, PGC1a acetyl inh 6, esBAF inh 4 and E-sel inducer 0.
C[C@@H]1CN([C@H](C)CO)C(=O)Cc2cc(NC(=O)Nc3ccccc3)ccc2O[C@@H]1CN(C)CC1CC1 was read as E-sel inducer 0.
Screening CCCC(=O)Oc1c(S(=O)(=O)c2ccc(C)cc2)c(C)nn1C(C)(C)C returned Yeast UUG start 13, PglD inh 2, PGC1a acetyl inh 7 and E-sel inducer -3.
CCC(=O)Oc1c(S(=O)(=O)c2ccc(C)cc2)c(C)nn1C(C)(C)C was read as C2C12 statin 106*, Yeast UUG start 14, PglD inh 3, PGC1a acetyl inh 9 and esBAF inh -5.
CCc1ccc2[nH]c(=O)c(CN(CCN3CCCC3)C(=O)NC3CCCCC3)cc2c1 was read as C2C12 statin 95*, Yeast UUG start 17, PglD inh 6, PGC1a acetyl inh 4 and esBAF inh 2.
`O=C(O)COc1c(-c2ccccc2)oc2ccccc2c1=O` gave C2C12 statin 75*, Yeast UUG start -19, PglD inh 10, PGC1a acetyl inh 1 and esBAF inh -7.
Screening O=c1c(O)c(-c2ccccc2)oc2ccccc12 returned C2C12 statin -12, Yeast UUG start -3, PglD inh -4, PGC1a acetyl inh 11 and esBAF inh 24.
Cc1ccc(-c2oc3ccccc3c(=O)c2O)cc1 was read as C2C12 statin 1, Yeast UUG start -18, PglD inh -7, PGC1a acetyl inh 5, esBAF inh 48* and E-sel inducer 1.
Screening CCNC(=O)Nc1ccc2c(c1)C(=O)N(C)[C@H]1CC[C@H](CC(=O)NCc3ccc(F)cc3)O[C@H]1CO2 returned C2C12 statin -2, Yeast UUG start -4, PglD inh 0, PGC1a acetyl inh -5, esBAF inh 0 and E-sel inducer 0.
For C/C(=N/N=C(/C)c1cccs1)c1cccs1 the results were C2C12 statin 2, Yeast UUG start -21, PglD inh -4 and esBAF inh 48*.
Screening C/C(=N/OC(=O)c1ccc(C)cc1)c1cccs1 returned C2C12 statin 11, Yeast UUG start -90, PglD inh 0, PGC1a acetyl inh 2 and esBAF inh -2.
`O=C(Nc1cccc(S(=O)(=O)C(F)F)c1)c1ccc(S(=O)(=O)N2CCOCC2)cc1` gave C2C12 statin 95*, Yeast UUG start 3, PglD inh 0, PGC1a acetyl inh -3 and esBAF inh -2.
`C[C@@H]1CN([C@@H](C)CO)C(=O)c2cc(NS(=O)(=O)c3ccc(Cl)cc3)ccc2O[C@@H](C)CCCCO[C@H]1CN(C)C` gave C2C12 statin -10, Yeast UUG start -2, PglD inh 1, PGC1a acetyl inh 3, esBAF inh -1 and E-sel inducer 0.
For CC(C)CC#Cc1ccc2c(c1)O[C@H](CN(C)C(=O)c1ccccc1)[C@H](C)CN([C@@H](C)CO)S2(=O)=O the results were C2C12 statin 1, Yeast UUG start -1, PglD inh 1, PGC1a acetyl inh 8, esBAF inh 9 and E-sel inducer 85*.
C[C@@H]1CN([C@@H](C)CO)S(=O)(=O)c2ccc(C#Cc3ccccc3)cc2O[C@@H]1CN(C)CC1CC1 was read as C2C12 statin -13, Yeast UUG start 11, PglD inh 4, PGC1a acetyl inh -17, esBAF inh 2 and E-sel inducer 131*.
Screening CCCC#Cc1ccc2c(c1)O[C@@H](CN(C)C(=O)c1ccccc1)[C@@H](C)CN([C@@H](C)CO)S2(=O)=O returned C2C12 statin 5, Yeast UUG start 13, PglD inh 2, PGC1a acetyl inh 2, esBAF inh 6 and E-sel inducer 0.

Ordered by heavy-atom count (falling): three of the compounds above.
`O=C(Nc1cccc(S(=O)(=O)C(F)F)c1)c1ccc(S(=O)(=O)N2CCOCC2)cc1` gave C2C12 statin 95*, Yeast UUG start 3, PglD inh 0, PGC1a acetyl inh -3 and esBAF inh -2.
`C/C(=N\NC(=O)COc1ccc(C(C)(C)C)cc1)c1ccc(-n2ccnc2)cc1` gave C2C12 statin -8, Yeast UUG start -17, PglD inh -7, PGC1a acetyl inh 1 and esBAF inh 48*.
Screening CCCC(=O)Oc1c(S(=O)(=O)c2ccc(C)cc2)c(C)nn1C(C)(C)C returned Yeast UUG start 13, PglD inh 2, PGC1a acetyl inh 7 and E-sel inducer -3.

Next compounds
C[C@H]1CN([C@@H](C)CO)S(=O)(=O)c2ccc(C#Cc3ccc(F)cc3)cc2O[C@@H]1CN(C)S(=O)(=O)c1cn(C)cn1 was read as C2C12 statin 74*, Yeast UUG start 4, PglD inh -2, PGC1a acetyl inh 3 and esBAF inh 13.
`CCCC#Cc1ccc2c(c1)O[C@@H](CN(C)C(=O)c1ccccc1)[C@@H](C)CN([C@H](C)CO)S2(=O)=O` gave C2C12 statin -10, Yeast UUG start 13, PglD inh 0, PGC1a acetyl inh 1, esBAF inh -7 and E-sel inducer 96*.
`CCC(=O)Nc1ccc2c(c1)OC[C@@H](C)N(C(=O)CC)C[C@@H](C)[C@H](OC)CN(C)C2=O` gave C2C12 statin 4, PGC1a acetyl inh 3, esBAF inh -1 and E-sel inducer 0.
COc1ccccc1CNC(=O)C[C@@H]1CC[C@H](NC(C)=O)[C@H](CO)O1 was read as C2C12 statin -4, Yeast UUG start -11, PglD inh 2, PGC1a acetyl inh 2, esBAF inh -1 and E-sel inducer 0.
CCS(=O)(=O)NCC[C@@H]1CC[C@H](NS(=O)(=O)c2ccccc2C)[C@H](CO)O1 was read as C2C12 statin 3, Yeast UUG start -3, PglD inh 0, PGC1a acetyl inh 0, esBAF inh 8 and E-sel inducer 0.
Screening C[C@H](CO)N1C[C@H](C)[C@H](CN(C)S(=O)(=O)c2cccs2)Oc2c(NC(=O)C3CC3)cccc2C1=O returned C2C12 statin -39, Yeast UUG start 7, PglD inh 3, PGC1a acetyl inh -7, esBAF inh -2 and E-sel inducer 0.
